Reference: paper PMC3962266 (Journal of medicinal chemistry, 2013)

Tested on: human platelet-rich plasma
Assay: Platelet aggregation assay
Format: cell-based
Conditions: 3 μM, collagen stimulation

Structure (SMILES): CCCCNc1ncc(C(=O)NCc2ccc(-n3ccnc3)cc2)c(N[C@H]2CC[C@H](O)CC2)n1 [Compound 23]
- ATP release (platelet activation and degranulation): decreased to a similar extent
